In PMC3727052 (Bioorganic & medicinal chemistry, 2012):

Columns and labels:
[1] = test system: HEL; details: human
[2] = test system: HeLa; details: human
[3] = test system: Vero; details: African green monkey
[4] = test system: MDCK; details: dog

In the case of NC(=O)c1ncn([C@@H]2O[C@H](CO)[C@@H](O)[C@H]2O)n1 [Ribavirin, reference compound], the “MCC (minimal cytotoxic concentration) HEL” value [1] is reported as greater than 250 µM, the “MCC (minimal cytotoxic concentration) HeLa” value [2] is reported as greater than 250 µM and the “MCC (minimal cytotoxic concentration) Vero” value [3] is reported as greater than 250 µM. The “MCC (minimal cytotoxic concentration) MDCK” value [4] was 20 µM.
